Values of other authors as cited in patent US20240262917A1, “ANTIBODIES AGAINST ALK AND METHODS OF USE THEREOF” (Dana-Farber Cancer Institute, Inc., priority 2021, published 2024).

Tested on: ALK-positive NSCLC
Conditions: cited from earlier work

Structure (SMILES) | median duration of response [months]
C[C@@H](Oc1cc(-c2cnn(C3CCNCC3)c2)cnc1N)c1c(Cl)ccc(F)c1Cl [crizotinib] | 10.9
CCc1cc2c(cc1N1CCC(N3CCOCC3)CC1)C(C)(C)c1[nH]c3cc(C#N)ccc3c1C2=O [alectinib] | 25.7
